For one compound, IC50 results are on record in ChEMBL document CHEMBL1154650, “Synthesis and evaluation of D-gluco-pyranocyclopropyl amines as potential glucosidase inhibitors” (Bioorg Med Chem Lett, 2009).

Broadly, the IC50 is the concentration that inhibits the measured activity by half. The low end stands for inhibition by little substance, the high end for a need for much substance.

The target in this assay is Lysosomal alpha-glucosidase (Homo sapiens, UniProt P10253). In words: Inhibition of human lysosomal alpha glucosidase.

As for `OC[C@@H]1[C@@H](O)[C@H](O)[C@@H](O)CN1CCCCCOCC12CC3CC(CC(C3)C1)C2`, it took 0.4 µM to reach half-maximal inhibition (IC50).
